Source: ChEMBL document CHEMBL1152717, “Discovery of mu-opioid selective ligands derived from 1-aminotetralin scaffolds made via metal-catalyzed ring-opening reactions” (Bioorg Med Chem Lett, 2009)

Sequences of proteins named here, by UniProt entry; tags and fusion partners are left off.
UniProt P35372, whole entry, looked up: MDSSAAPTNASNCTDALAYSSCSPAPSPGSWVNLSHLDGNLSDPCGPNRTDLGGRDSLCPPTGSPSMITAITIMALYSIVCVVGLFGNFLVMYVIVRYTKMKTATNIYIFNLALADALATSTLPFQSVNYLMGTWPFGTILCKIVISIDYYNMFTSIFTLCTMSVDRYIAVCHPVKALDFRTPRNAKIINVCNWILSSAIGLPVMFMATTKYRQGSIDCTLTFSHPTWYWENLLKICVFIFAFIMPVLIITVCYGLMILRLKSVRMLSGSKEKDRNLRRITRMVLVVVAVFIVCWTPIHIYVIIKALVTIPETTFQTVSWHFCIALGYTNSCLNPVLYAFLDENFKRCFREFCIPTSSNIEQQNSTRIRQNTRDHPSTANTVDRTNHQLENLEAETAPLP

Target: Mu-type opioid receptor (Homo sapiens, UniProt P35372)
Conditions: at 100 µM

For COCCN(C(=O)COc1ccc(Cl)cc1)C1c2cc(OC)c(OC)cc2CCC1N(C)C (configuration not stated), which Emax is on record?
The Emax was 0%.

How did the Emax turn out when COCCN(C(=O)Cc1ccc(Cl)cc1)C1c2cc(OC)c(OC)cc2CCC1N(C)C (configuration not stated) was run?
Its Emax is 0%.
